Test: Biodistribution by LC-Mass Spectral analysis
Settings: mice, oral, 4 hours

CN(CCOc1ccc(CC2SC(=O)NC2=O)cc1)c1ccccn1 (stereo not shown) [Rosiglitazone, rosiglitazone, reference compound]
Detection in the brain (crosses the blood brain barrier): not detected
